Source: patent US10195181B2, “Carboxamide derivatives” (Novartis AG, priority 2014, dated 2019)

Amino acid sequences for entries named in this document (tags omitted).
UniProt Q9HCE7, whole entry: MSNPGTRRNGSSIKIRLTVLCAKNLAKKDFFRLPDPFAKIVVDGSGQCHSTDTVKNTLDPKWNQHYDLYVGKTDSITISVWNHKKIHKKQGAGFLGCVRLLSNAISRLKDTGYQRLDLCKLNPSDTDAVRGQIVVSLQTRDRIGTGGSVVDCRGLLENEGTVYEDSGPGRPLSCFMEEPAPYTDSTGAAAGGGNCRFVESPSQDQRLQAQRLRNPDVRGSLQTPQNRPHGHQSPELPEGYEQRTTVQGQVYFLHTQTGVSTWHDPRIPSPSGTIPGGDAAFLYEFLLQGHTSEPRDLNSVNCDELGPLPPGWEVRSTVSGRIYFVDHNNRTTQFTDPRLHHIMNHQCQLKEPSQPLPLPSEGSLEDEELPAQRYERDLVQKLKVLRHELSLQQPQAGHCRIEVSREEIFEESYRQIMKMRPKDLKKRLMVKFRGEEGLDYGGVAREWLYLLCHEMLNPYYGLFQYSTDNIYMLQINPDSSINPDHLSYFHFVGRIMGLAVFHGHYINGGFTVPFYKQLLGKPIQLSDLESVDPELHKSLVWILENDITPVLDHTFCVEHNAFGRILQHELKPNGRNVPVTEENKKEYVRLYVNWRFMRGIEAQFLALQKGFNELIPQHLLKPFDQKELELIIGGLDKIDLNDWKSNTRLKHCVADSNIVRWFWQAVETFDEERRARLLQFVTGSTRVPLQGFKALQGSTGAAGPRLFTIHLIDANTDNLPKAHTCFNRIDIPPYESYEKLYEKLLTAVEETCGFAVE

Molecular target: Smurf-1 (Homo sapiens (Human), UniProt Q9HCE7)
Assay: HECT E3 ligase autoubiquitinylation TR-FRET assay (Smurf-1)
Format: biochemical
From the text: To determine the HECT E3 ligase selectivity of the compounds, a panel of biochemical HECT E3 ligase autoubiquitinylation assays was employed (Smurf-1, Smurf-2, WWP1, WWP2, ITCH, Nedd4, Nedd4L and E6AP). The conjugation of ubiquitin to a protein substrate is a multistep process. In an initial ATP-requiring step, a thioester bond is formed between the carboxyl terminus of ubiquitin and an internal cystein residue of the ubiquitin-activating enzyme (E1). Activated ubiquitin is then transferred to a specific cystein residue of an ubiquitin-conjugating enzyme (E2). E2s donate ubiquitin to a HECT E3 ligase (E3) from which it is transferred to the substrate protein. HECT E3 ligases can auto-ubiquitinylate. This event is detected in the TR-FRET (Time-Resolved Fluorescence Resonance Energy Transfer) assay used in this panel. The reaction mix contains E1, E2, tagged-E3, biotin-conjugated ubiquitin, the compound and ATP in a suitable buffer and is incubated for 45 minutes to allow auto-ubiquitinylation of the E3 ligase. […] When these two fluorophores are brought together by a biomolecular interaction (in this case ubiquitinylation of the E3 ligase), a portion of the energy captured by the Cryptate during excitation is released through fluorescence emission at 620 nm, while the remaining energy is transferred to XL665. This energy is then released by XL665 as specific fluorescence at 665 nm. […]

In the case of “5-((2R,4S)-4-(2-bromopropan-2-yl)tetrahydrofuran-2-yl)-N-(2-cyclohexyl-1,5-dimethyl-3-oxo-2,3-dihydro-1H-pyrazol-4-yl)-4-methylisoxazole-3-carboxamide and 5-((2S,4R)-4-(2-bromopropan-2-yl)tetrahydrofuran-2-yl)-N-(2-cyclohexyl-1,5-dimethyl-3-oxo-2,3-dihydro-1H-pyrazol-4-yl)-4-methylisoxazole-3-carboxamide [Example 23]”, the IC50 is reported as 0.16 µM.
